# Laboratory results reported in patent US9403855B2 (priority 2010, dated 2016).
# Biological target: neuraminidase of A/California/7/2009 (pandemic H1N1) (Influenza A virus, UniProt C3W6G3)
# Experiment: biochemical
# Design: species or system Influenza virus A/California/7/2009 (pandemic H1N1)
smiles,measurement,value
"CCC(CC)O[C@@H]1C=C(C(=O)O)C[C@H](N)[C@H]1NC(C)=O [Oseltamivir acid, oseltamivir carboxylic acid, reference compound]",pIC50,8.77

# pIC50: −log10 of the molar value.
